This is an account of results in patent publication US7989447B2, “1,5 and 3,6-substituted indole compounds having NOS inhibitory activity” (NeurAxon, Inc., priority 2006, dated 2011).

The assay has as its target human endothelial constitutive NOS (eNOS) (Homo sapiens, UniProt P29474). The assay can be described thus: eNOS (Human) enzyme assay, radiometric conversion of [3H]L-arginine to [3H]L-citrulline. Type of assay: biochemical. As to conditions: recombinant human enzyme, 37° C., 45 min. How it is done: Recombinant human inducible NOS (iNOS), human endothelial constitutive NOS (eNOS) or human neuronal constitutive NOS(nNOS) were produced in Baculovirus-infected Sf9 cells (ALEXIS). In a radiometric method, NO synthase activity was determined by measuring the conversion of [^3H]L-arginine to [^3H]L-citrulline. To measure iNOS, 10 μL of enzyme was added to 100 μL of 100 mM HEPES, pH=7,4, containing 1 mM CaCl2, 1 mM EDTA, 1 mM dithiotheitol, 1 μM FMN, 1 μM FAD, 10 μM tetrahydrobiopterin, 120 μM NADPH, and 100 nM CaM. To measure eNOS or nNOS, 10 μL of enzyme was added to 100 μL of 40 mM HEPES, pH=7.4, containing 2.4 mM CaCl2, 1 mM MgCl2, 1 mg/mL BSA, 1 mM EDTA, 1 mM dithiothreitol, 1 μM FMN, 1 μM FAD, 10 μM tetrahydrobiopterin, 1 mM NADPH, and 1.2 μM CaM.
To measure enzyme inhibition, a 15 μL solution of a test substance was added to the enzyme assay solution, followed by a pre-incubation time of 15 min at RT. The reaction was initiated by addition of 20 μL L-arginine containing 0.25 μCi of [^3H]arginine/mL and 24 μM L-arginine. The total volume of the reaction mixture was 150 μL in every well. The reactions were carried out at 37° C. for 45 min. […] An 70 μL aliquot of the supernatant was added to 100 μL of scintillation fluid and the samples were counted in a liquid scintillation counter (1450 Microbeta Jet, Wallac). […]

Turning to `CN1CCC(n2ccc3cc(NC(=N)c4cccs4)ccc32)CC1` [Compound 82, N-(1-(1-methylpiperidin-4-yl)-1H-indol-5-yl)thiophene-2-carboximidamide], the IC50 was 15.8 µM.

As a reminder, the IC50 is the concentration that inhibits the measured activity by half.
